Calls of active or inactive are those of the source. The calls are words filed in the database; no cut-off is given here.
Tests used:
[1] = molecular target: Cyclin-dependent kinase 5/CDK5 activator 1 (Homo sapiens) (UniProt Q00535+Q15078); assay: Inhibition of CDK5/p25 (unknown origin) at 1 uM in presence of ATP relative to control; format: protein-complex assay
[2] = molecular target: Casein kinase I isoform delta (Homo sapiens) (UniProt P48730); assay: Inhibition of CK1 delta (unknown origin) at 1 uM in presence of ATP relative to control
[3] = molecular target: Casein kinase 2 (Homo sapiens) (UniProt P67870+P68400+P19784+Q8NEV1); assay: Inhibition of CK2 (unknown origin) at 1 uM in presence of ATP relative to control; format: protein assay
[4] = molecular target: Dual specificity protein kinase CLK3 (Homo sapiens) (UniProt P49761); assay: Inhibition of CLK3 (unknown origin) at 1 uM in presence of ATP relative to control
[5] = molecular target: Dual specificity protein kinase CLK4 (Homo sapiens, UniProt Q9HAZ1); assay: Inhibition of CLK4 (unknown origin) at 1 uM in presence of ATP relative to control
[6] = molecular target: Dual specificity tyrosine-phosphorylation-regulated kinase 1A (Homo sapiens, UniProt Q13627); assay: Inhibition of DYRK1A (unknown origin) at 1 uM in presence of ATP relative to control
[7] = molecular target: T1, Dual specificity tyrosine-phosphorylation-regulated kinase 2 (Homo sapiens) (UniProt Q92630); assay: Inhibition of DYRK2 (unknown origin) at 1 uM in presence of ATP relative to control
T1 sequence (whole entry): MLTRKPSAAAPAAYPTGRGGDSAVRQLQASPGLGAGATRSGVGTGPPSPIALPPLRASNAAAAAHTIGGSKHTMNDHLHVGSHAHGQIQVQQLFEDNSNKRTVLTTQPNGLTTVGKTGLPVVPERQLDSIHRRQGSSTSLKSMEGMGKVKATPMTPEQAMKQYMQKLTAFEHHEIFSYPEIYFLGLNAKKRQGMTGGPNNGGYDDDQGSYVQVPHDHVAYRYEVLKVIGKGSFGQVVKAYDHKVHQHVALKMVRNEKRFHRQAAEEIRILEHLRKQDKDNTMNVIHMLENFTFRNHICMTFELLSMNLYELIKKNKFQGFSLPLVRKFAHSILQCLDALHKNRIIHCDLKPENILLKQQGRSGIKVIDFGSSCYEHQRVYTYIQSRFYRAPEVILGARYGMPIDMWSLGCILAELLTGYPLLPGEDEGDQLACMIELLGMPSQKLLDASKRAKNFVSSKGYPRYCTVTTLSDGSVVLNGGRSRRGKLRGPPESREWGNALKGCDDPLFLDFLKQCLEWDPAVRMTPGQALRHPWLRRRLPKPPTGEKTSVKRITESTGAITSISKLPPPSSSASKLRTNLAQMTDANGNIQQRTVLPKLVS

The chains behind the UniProt entries cited, without tags or fusion partners. Where a name states a change or a piece, a line headed by the entry shows the natural chain unless it says otherwise.
UniProt Q00535, whole entry, looked up: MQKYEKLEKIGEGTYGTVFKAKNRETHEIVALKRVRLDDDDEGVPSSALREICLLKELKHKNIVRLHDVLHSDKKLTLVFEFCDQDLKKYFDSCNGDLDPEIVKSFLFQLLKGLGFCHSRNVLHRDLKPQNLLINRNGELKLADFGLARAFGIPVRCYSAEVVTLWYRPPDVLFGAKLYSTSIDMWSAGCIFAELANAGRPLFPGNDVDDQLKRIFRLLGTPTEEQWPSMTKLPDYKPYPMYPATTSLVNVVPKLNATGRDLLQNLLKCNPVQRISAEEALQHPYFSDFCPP
UniProt Q15078: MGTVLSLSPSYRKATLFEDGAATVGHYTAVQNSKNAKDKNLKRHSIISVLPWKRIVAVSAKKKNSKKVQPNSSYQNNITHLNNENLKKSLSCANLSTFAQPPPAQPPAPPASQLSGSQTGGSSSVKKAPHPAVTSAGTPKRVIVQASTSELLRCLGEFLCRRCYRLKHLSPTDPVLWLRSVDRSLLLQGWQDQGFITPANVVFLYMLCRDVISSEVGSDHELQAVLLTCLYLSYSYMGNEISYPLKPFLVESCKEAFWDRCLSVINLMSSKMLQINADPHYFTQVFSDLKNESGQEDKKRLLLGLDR
UniProt P48730: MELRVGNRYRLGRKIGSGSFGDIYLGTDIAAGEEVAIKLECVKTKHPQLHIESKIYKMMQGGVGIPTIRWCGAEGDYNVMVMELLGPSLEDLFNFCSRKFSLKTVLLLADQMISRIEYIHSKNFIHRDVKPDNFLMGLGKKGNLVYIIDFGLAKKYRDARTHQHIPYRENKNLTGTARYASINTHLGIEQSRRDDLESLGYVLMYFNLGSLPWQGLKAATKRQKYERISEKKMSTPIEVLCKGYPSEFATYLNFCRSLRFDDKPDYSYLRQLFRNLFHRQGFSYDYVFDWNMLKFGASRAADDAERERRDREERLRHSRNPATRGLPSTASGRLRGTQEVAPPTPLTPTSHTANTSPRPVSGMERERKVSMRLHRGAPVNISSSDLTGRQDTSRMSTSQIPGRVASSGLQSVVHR
UniProt P67870, whole entry, looked up: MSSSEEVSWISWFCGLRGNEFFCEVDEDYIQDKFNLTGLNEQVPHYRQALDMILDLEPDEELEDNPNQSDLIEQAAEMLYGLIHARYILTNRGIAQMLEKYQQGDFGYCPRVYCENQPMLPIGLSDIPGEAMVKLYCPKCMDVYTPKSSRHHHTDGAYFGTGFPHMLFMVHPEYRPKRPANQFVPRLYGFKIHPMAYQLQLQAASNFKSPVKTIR
UniProt P68400, whole entry, looked up: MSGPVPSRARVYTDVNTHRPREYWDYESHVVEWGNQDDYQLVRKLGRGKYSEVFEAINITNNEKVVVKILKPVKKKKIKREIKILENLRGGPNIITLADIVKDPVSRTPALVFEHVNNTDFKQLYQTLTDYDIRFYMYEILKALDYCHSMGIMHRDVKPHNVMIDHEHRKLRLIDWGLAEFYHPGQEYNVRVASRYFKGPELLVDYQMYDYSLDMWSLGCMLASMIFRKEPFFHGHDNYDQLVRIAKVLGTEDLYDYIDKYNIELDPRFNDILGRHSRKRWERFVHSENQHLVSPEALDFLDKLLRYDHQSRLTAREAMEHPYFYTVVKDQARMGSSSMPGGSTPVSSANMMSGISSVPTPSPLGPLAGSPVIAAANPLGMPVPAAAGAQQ
UniProt Q8NEV1, whole entry, looked up: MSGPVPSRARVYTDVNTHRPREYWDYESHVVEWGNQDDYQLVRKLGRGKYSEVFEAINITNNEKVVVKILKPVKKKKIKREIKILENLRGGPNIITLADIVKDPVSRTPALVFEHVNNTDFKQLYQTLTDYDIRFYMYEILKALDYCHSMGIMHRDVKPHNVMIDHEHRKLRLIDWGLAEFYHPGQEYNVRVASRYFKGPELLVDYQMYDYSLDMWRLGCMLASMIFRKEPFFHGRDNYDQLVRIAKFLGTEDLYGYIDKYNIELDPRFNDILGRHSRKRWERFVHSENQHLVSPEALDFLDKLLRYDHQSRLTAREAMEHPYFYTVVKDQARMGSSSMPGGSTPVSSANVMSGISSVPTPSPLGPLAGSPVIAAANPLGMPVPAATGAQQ
UniProt P49761: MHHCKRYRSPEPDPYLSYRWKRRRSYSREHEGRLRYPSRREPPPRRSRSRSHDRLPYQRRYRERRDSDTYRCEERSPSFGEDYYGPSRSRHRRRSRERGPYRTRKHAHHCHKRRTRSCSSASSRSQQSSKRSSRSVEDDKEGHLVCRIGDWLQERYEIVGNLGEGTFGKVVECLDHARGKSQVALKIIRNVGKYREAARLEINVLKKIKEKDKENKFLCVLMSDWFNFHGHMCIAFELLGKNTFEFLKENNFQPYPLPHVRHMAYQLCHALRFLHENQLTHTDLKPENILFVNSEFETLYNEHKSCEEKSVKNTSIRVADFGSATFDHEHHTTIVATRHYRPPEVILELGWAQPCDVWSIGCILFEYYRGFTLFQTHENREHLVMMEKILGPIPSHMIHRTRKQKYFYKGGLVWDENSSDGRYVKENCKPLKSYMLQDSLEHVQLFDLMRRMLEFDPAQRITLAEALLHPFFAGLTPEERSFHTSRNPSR
UniProt Q9HAZ1: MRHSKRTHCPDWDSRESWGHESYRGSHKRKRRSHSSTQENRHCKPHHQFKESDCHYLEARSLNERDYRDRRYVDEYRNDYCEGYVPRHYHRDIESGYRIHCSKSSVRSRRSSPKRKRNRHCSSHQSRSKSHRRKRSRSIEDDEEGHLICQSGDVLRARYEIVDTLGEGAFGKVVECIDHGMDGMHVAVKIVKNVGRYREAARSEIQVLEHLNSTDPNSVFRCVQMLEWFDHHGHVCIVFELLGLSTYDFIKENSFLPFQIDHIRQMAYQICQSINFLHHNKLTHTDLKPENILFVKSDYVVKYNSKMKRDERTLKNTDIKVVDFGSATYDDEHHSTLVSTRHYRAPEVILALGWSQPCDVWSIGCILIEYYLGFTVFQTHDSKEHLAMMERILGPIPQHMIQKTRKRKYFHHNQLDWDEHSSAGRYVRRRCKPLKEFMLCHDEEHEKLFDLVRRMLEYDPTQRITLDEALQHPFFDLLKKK
UniProt Q86Z02: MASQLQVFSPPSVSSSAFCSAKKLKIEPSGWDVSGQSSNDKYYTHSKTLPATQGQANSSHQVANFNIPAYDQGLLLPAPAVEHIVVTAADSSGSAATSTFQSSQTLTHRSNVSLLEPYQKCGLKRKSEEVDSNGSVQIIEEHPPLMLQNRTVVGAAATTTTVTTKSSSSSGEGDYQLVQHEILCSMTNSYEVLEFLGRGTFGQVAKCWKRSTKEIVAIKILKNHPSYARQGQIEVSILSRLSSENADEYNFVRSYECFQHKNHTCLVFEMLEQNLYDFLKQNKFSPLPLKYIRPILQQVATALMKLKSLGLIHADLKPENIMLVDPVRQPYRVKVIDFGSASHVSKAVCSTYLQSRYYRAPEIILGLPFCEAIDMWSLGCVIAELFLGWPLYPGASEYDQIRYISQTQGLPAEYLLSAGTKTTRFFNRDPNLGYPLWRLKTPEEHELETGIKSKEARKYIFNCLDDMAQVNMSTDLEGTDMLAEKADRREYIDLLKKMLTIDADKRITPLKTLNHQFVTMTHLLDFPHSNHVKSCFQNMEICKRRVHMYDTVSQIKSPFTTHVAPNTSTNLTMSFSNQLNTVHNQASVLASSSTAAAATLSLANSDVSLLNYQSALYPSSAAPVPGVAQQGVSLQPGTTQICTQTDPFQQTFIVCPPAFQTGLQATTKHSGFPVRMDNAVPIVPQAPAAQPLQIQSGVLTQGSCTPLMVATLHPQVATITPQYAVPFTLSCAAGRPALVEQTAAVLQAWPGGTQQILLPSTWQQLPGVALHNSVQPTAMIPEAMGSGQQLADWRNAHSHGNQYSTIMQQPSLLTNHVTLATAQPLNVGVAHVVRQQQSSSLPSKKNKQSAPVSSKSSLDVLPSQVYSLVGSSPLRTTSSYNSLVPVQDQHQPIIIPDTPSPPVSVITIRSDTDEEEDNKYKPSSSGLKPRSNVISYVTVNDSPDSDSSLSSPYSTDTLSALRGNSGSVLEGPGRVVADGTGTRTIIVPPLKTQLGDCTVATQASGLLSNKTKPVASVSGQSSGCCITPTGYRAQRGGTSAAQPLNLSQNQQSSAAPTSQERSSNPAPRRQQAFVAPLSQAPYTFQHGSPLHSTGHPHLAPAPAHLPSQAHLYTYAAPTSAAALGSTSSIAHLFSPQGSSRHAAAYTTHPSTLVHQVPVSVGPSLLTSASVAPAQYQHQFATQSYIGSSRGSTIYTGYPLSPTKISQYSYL
UniProt Q9H1R3: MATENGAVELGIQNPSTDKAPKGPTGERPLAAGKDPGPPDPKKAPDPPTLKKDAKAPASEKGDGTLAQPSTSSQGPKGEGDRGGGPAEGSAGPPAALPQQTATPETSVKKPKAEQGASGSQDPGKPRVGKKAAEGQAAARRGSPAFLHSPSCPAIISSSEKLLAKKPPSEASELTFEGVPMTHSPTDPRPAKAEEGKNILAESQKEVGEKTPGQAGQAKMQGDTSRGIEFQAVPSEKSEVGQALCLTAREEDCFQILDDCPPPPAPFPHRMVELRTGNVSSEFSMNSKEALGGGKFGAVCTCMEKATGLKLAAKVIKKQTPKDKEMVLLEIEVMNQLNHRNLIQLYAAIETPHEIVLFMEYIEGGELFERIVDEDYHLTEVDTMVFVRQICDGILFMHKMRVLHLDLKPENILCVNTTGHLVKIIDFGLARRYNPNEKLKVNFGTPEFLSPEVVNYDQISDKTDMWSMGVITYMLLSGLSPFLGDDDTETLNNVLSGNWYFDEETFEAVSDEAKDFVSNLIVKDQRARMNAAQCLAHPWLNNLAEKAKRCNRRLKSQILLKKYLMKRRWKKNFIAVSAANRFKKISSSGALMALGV
UniProt P11309, whole entry, looked up: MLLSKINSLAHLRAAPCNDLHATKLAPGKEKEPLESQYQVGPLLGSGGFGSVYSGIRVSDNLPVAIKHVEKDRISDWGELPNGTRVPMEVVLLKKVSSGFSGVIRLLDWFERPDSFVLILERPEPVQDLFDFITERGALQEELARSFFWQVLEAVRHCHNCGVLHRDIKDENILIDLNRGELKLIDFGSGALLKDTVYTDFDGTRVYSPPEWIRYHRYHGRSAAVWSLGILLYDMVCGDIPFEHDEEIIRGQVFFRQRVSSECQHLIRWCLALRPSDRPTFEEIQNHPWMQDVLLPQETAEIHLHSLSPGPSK
UniProt Q96SB4, whole entry: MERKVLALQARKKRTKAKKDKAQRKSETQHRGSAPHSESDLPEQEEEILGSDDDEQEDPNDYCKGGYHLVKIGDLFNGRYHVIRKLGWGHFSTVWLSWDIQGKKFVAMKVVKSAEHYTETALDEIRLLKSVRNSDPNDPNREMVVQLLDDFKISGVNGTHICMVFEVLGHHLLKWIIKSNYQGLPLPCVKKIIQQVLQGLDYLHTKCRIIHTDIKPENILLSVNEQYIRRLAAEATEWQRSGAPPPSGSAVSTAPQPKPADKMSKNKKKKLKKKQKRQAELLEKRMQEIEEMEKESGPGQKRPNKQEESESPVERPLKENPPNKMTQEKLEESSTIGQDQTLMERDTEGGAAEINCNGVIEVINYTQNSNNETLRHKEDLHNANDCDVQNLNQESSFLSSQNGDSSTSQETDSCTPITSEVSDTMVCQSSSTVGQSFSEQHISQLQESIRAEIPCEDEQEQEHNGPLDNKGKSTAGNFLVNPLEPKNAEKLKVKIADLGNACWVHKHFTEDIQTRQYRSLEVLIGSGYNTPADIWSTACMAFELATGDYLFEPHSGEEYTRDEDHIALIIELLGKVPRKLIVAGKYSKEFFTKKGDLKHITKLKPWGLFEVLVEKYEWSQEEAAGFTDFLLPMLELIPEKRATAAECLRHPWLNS
UniProt Q16620, whole entry, looked up: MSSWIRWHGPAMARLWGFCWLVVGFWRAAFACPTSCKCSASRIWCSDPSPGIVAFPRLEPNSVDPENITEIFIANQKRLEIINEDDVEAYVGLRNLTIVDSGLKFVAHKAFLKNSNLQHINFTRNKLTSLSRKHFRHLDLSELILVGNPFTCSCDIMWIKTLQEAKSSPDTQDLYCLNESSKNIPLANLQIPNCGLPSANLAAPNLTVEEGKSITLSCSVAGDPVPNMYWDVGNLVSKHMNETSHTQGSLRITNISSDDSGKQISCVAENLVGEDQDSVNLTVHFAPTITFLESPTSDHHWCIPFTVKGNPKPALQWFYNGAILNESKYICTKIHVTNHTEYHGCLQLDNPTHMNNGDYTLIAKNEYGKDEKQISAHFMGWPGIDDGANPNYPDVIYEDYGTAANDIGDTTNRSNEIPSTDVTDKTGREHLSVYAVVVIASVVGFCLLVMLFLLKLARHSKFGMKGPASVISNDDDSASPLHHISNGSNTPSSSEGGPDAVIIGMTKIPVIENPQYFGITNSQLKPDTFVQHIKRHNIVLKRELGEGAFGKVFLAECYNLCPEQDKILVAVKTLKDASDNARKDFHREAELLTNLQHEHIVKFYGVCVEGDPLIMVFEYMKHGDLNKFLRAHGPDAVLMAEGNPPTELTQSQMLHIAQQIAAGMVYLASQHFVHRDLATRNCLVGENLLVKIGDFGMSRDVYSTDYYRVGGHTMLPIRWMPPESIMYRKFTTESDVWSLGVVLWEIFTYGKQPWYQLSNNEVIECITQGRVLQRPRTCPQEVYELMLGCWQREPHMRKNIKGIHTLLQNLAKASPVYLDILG

[8] = molecular target: T2, Serine/threonine-protein kinase haspin (Homo sapiens) (UniProt Q8TF76); assay: Inhibition of Haspin (unknown origin) at 1 uM in presence of ATP relative to control
T2 sequence (whole entry): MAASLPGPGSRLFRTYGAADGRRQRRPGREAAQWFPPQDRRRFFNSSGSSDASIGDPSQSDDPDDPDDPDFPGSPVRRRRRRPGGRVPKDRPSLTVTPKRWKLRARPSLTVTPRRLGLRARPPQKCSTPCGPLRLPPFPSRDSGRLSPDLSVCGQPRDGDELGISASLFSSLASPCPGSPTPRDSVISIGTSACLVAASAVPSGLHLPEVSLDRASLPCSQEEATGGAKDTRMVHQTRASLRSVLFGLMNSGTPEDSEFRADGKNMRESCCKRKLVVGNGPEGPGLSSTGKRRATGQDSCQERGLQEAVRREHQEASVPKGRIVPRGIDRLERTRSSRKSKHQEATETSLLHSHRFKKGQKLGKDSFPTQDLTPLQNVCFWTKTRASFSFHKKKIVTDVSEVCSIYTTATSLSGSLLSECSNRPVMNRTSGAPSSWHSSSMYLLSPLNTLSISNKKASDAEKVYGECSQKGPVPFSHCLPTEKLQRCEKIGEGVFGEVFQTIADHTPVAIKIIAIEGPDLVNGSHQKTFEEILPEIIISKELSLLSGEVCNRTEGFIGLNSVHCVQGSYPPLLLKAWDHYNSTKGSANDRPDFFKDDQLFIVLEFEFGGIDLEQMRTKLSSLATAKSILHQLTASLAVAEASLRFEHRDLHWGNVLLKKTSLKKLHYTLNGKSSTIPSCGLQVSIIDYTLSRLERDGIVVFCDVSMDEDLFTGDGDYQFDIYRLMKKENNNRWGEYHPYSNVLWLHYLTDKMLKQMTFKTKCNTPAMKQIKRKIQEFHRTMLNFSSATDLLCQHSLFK

[9] = molecular target: Homeodomain-interacting protein kinase 1 (Homo sapiens) (UniProt Q86Z02); assay: Inhibition of HIPK1 (unknown origin) at 1 uM in presence of ATP relative to control
[10] = molecular target: Myosin light chain kinase 2, skeletal/cardiac muscle (Homo sapiens) (UniProt Q9H1R3); assay: Inhibition of MLCK2 (unknown origin) at 1 uM in presence of ATP
[11] = molecular target: Serine/threonine-protein kinase pim-1 (Homo sapiens) (UniProt P11309); assay: Inhibition of PIM1 (unknown origin) at 1 uM in presence of ATP relative to control
[12] = molecular target: SRSF protein kinase 1 (Homo sapiens) (UniProt Q96SB4); assay: Inhibition of SRPK1 (unknown origin) at 1 uM in presence of ATP relative to control
[13] = molecular target: T3, Serine/threonine-protein kinase 17A (Homo sapiens) (UniProt Q9UEE5); assay: Inhibition of STK17A (unknown origin) at 1 uM in presence of ATP relative to control
T3 sequence (whole entry): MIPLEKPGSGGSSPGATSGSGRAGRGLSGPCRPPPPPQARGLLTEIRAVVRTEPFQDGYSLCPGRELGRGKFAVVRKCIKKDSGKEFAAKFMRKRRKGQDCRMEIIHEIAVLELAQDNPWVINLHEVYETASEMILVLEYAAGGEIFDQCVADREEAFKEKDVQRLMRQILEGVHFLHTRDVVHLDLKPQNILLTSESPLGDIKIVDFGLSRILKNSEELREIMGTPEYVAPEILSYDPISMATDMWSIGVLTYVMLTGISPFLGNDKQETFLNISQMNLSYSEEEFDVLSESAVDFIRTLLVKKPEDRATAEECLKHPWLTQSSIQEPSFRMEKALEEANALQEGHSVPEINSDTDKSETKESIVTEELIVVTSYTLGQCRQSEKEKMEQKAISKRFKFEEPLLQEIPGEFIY

[14] = molecular target: BDNF/NT-3 growth factors receptor (Homo sapiens) (UniProt Q16620); assay: Inhibition of TRKB (unknown origin) at 1 uM in presence of ATP relative to control
[15] = molecular target: BDNF/NT-3 growth factors receptor (Homo sapiens) (UniProt Q16620); assay: Inhibition of TRKB (unknown origin) at 1 uM in presence of ATP

inhibition [1]	inhibition [2]	inhibition [3]	inhibition [4]	inhibition [5]	inhibition [6]	inhibition [7]	inhibition [8]	inhibition [9]	inhibition [10]	inhibition [11]	inhibition [12]	inhibition [13]	inhibition [14]	inhibition [15]	SMILES
6%	5%	4%	13%	99%	70%	25%	61%	4%	inactive	8%	5%	50%	1%		COc1ccc2sc(C(=O)NNc3cc(F)cc(F)c3)cc2c1
4%	1%	3%	30%	100%	77%	10%	37%	3%	inactive	6%	3%	42%		inactive	COc1ccc2sc(C(=O)NNc3cc(Cl)cc(Cl)c3)cc2c1

From ChEMBL document CHEMBL5346870, “Discovery of novel 5-methoxybenzothiophene hydrazides as metabolically stable Clk1 inhibitors with high potency and unprecedented Clk1 isoenzyme selectivity” (Eur J Med Chem, 2023)
